Patent US20120142766A1, “SUBSTITUTED 1,3-DIOXANES AND THEIR USES” (EVOLVA SA, priority 2007, published 2012)

Molecular target: T1, Thromboxane synthase (Homo sapiens, UniProt P24557)
T1 construct: Human Platelet Thromboxane Synthase Assay; from tissue; host or cells: human platelets
T1 sequence (P24557 1-533): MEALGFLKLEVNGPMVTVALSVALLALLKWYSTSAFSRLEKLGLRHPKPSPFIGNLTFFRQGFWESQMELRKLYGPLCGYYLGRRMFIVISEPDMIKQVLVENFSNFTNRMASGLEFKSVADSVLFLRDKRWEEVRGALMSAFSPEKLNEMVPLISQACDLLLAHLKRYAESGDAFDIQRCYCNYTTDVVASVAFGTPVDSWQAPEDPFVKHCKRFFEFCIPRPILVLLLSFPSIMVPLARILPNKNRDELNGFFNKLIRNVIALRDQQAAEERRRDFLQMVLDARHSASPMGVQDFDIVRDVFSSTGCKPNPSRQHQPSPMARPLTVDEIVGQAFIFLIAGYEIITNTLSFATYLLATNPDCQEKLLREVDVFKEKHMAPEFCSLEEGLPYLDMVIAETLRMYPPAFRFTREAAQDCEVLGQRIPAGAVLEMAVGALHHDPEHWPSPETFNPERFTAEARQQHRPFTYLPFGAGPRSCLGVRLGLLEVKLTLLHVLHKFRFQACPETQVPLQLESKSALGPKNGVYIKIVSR
Experiment: Human platelet thromboxane synthase assay
Assay type: biochemical
Method: The compounds were tested for thromboxane synthase inhibition essentially as described by Borsch-Haubold A G, Pasquet S, Watson S P. (1998) Direct inhibition of cyclooxygenase-1 and -2 by the kinase inhibitors SB 203580 and PD 98059. […] 1. Imidazole derivatives. J Med. Chem. (10):1139-48 according to the following:
Pre-incubation time, temp: 15 minutes at 25° C. Incubation time, temp: 3 minutes at 25° C.
Incubation Buffer: 10 mM Tris-HCl, pH 7.4
Quantification Method: EIA quantification of TxB2

O=C(O)CC/C=C\C[C@H]1CO[C@@H](c2ccccc2Cl)O[C@H]1c1ccccc1O [Compound B, (Z)-6-((2R,4R,5S)-2-(2-chlorophenyl)-4-(2-hydroxyphenyl)-1,3-dioxan-5-yl)hex-4-enoic acid]
IC50: 12.1 µM

O=C(O)CC/C=C\C[C@@H]1CO[C@H](c2ccccc2Cl)O[C@@H]1c1ccccc1O [Compound C, (Z)-6-((2S,4S,5R)-2-(2-chlorophenyl)-4-(2-hydroxyphenyl)-1,3-dioxan-5-yl)hex-4-enoic acid]
IC50: 7.02 µM
